In US11147875B2, “Compositions, combinations and related methods for photoimmunotherapy” (priority 2015, dated 2021):

What was measured:
[1] = system: BxPC3 cells; assay: PIT with cetuximab conjugates with or without donkey anti-human-IRDye 700DX; assay type: cell-based; settings: 250 ng/mL 1st incubation
Procedure: The cells were then washed one time with complete culture media, incubated for 30 minutes at 4° C. with or without 2 μg/mL Donkey anti-Human IRDye 700DX conjugated (DxHu IR700) secondary antibody diluted with complete culture media, and then washed one time with complete culture media. The cells were then illuminated with a 690 nm laser at a light dose of 16 J/cm^2 or protected from light (“no light”).
The effect of different treatment regimens on cell death was measured using the fluorescent stain, CellTox Green (Cat No: G8731, Promega, Madison, Wis.). […] After the light treatment, all cells were incubated with 1× CellTox Green reagent diluted in complete culture media. […] The CellTox Green fluorescence signal was measured at 24 hours after light treatment using a fluorescence plate reader. The cells were then lysed with detergent, incubated at 37° C. for 30 minutes, and the CellTox Green fluorescence signal was measured again post lysis. The percent dead cells was calculated by taking the ratio between background (lx CellTox Green in complete culture media without cells) subtracted CellTox Green signal per well prior to and post lysis and multiplying the ratio by 100.

[2] = system: THP1 cells; assay: CD86 on THP1 cells co-cultured with PIT-treated tumor cells, flow cytometry; assay type: cell-based, human; settings: 500 ng/mL, 12 J/cm^2
Procedure: A431 cell line was grown in complete RPMI and T98G, FaDu and U87 tumor cell lines were grown in complete EMEM media. The cells were plated at 15,000 cells in 100 μL total volume per well in a 96 well tissue culture plate for adherence overnight. The viability of the cells prior to plating was checked via trypan blue exclusion method and >95% cells were viable.
The next day the cells were treated with cetuximab-IR700 at 500 ng/mL for 1 hr at 37° C. in the CO2 incubator and then were treated with light by subjecting the cells to 690 nm laser light fluence of 12 J/cm^2. The controls represented wells corresponding to the groups not treated with light (non-PIT treated tumor cells).
THP1 cells (ATCC® TIB202™) were grown in complete RPMI. For co-culture, 15,000 THP1 cells were directly added into the wells with PIT treated tumor cells and control non PIT treated tumor cell wells. The co-cultures were then incubated for 24 hours at 37° C. in the CO2 incubator. […]
Cells were resuspended in stain buffer and human Fc blocking reagent (BD Biosciences) was then added and cells were incubated for 20 min at room temperature. […] Appropriate gating was done while analyzing the data to exclude cell debris and the data was analyzed with gating performed on live events. […] The results were based on mean fluorescence intensity (MFI) data from each group which was plotted as fold increase over the no light controls. […]

[3] = 2nd incubation 2 μg/mL Don × Hu IRDye 700DX

cetuximab-IRDye 700DX: conjugate containing IRDye 700DX (IR700) linked to cetuximab
% Dead cells 690 nm Light (16 J/cm^2) [1, 3]: 96.66% +/− 4.24%
% Dead cells No Light [1, 3]: 7.89% +/− 0.24%
% Dead cells 690 nm Light (16 J/cm^2) ([1]; no 2nd incubation): 65.76% +/− 5.14%
% Dead cells No Light ([1]; no 2nd incubation): 7.44% +/−1.10%
CD86 surface expression ([2]; co-culture with PIT-treated A431 cells): increased surface CD86 expression
CD86 surface expression ([2]; co-culture with PIT-treated FaDu cells): increased surface CD86 expression
